Experimental data: patent publication US20120189670A1, “PHARMACEUTICAL COMPOSITIONS AND FORMULATIONS INCLUDING INHIBITORS OF THE PLECKSTRIN HOMOLOGY DOMAIN AND METHODS FOR USING SAME” (priority 2009, published 2012)

By UniProt entry, the sequences of proteins in these tests, tags left out.
UniProt P31750, whole entry: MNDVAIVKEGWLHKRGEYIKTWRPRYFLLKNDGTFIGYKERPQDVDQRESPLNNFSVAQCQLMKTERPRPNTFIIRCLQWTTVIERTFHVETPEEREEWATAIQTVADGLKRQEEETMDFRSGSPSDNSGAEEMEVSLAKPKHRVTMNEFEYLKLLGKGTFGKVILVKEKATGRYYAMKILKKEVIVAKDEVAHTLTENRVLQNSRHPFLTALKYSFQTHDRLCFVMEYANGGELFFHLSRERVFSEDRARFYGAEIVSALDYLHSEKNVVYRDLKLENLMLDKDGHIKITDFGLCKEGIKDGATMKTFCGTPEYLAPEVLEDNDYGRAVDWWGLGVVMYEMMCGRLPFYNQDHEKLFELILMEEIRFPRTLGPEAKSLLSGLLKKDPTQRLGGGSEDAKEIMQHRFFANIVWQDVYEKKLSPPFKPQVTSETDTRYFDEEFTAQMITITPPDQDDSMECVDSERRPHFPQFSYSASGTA

Assays:
Solubility (Table 11) = format: physicochemical
[1] = target: AKT (phospho-Ser^473 AKT) in NIH3T3 cells (Mus musculus, UniProt P31750); test: Inhibition of phospho-Ser473 AKT in NIH3T3 cells; format: cell-based; details: read-out: AKT inhibition (IC50 μM) NIH3T3
Experimental: […]. […] AKT activity was measured by Western blotting using anti-phosphoSer437 AKT antibody. Downstream targets of AKT were detected also by Western blotting using specific anti-phospho antibodies and anti-actin was used as a loading control. Compounds 331 and 335 appear to inhibit both AKT phosphorylation and GSK3 phosphorylation downstream.

Q: With `CC1=NN(C(=O)c2ccc(Cl)cc2)C(O)C1/N=N/c1ccc(S(=O)(=O)Nc2ncccn2)cc1` (centres unmarked) as the molecule, how does the Solubility (Solubility (Table 11)) read?
A: <0.1 µM

Q: What about the IC50 [1] of the same molecule?
A: 3 µM
